This experiment deals with M3 receptor (Homo sapiens (Human), UniProt P20309). Kind of experiment: M3 receptor affinity test (3H-NMS competition). Format: binding. As to conditions: read-out: IC50, activity against the M3 receptor in vitro; 0.2 nM 3H-NMS, M3 receptor membrane protein, 2 h at room temperature. On the procedure:
M3 receptor is a G protein-coupled receptor. In this experiment, the activity of test compounds against the M3 receptor in vitro was assayed by the competition of radioisotope labeled NMS and non-isotope labeled test compounds for an M3 binding site.
The experiment was performed by a radioisotope affinity assay. The M3 receptor membrane protein was prepared at 10 μg/mL by Biology Department of WuXi AppTec, and compounds were serially diluted in a 2.5-fold gradient in DMSO to obtain 10 concentrations. Radioisotope 3H-NMS was prepared at 0.2 nM in an assay buffer (10 mM HEPES, 1 mM MgCl2, pH 7.40). In formal testing, the experimental system comprising 1 […], 100 μL of M3 receptor membrane protein and 100 μL of radioisotope was shaken in a shaker at 300 RPM for 2 h at room temperature. A GF/C plate (Perkin Elmer, Cat No. 6055690) was prefoamed with 0.3% PEI, and the membrane proteins in the reaction solution were collected by filtration onto the GF/C plate. The signal values were read by a Perkin Elmer Microbeta2 instrument and the inhibition rate for each concentration point was shown as a percentage.

The chains behind the UniProt entries cited, without tags or fusion partners.
UniProt P20309, whole entry, looked up: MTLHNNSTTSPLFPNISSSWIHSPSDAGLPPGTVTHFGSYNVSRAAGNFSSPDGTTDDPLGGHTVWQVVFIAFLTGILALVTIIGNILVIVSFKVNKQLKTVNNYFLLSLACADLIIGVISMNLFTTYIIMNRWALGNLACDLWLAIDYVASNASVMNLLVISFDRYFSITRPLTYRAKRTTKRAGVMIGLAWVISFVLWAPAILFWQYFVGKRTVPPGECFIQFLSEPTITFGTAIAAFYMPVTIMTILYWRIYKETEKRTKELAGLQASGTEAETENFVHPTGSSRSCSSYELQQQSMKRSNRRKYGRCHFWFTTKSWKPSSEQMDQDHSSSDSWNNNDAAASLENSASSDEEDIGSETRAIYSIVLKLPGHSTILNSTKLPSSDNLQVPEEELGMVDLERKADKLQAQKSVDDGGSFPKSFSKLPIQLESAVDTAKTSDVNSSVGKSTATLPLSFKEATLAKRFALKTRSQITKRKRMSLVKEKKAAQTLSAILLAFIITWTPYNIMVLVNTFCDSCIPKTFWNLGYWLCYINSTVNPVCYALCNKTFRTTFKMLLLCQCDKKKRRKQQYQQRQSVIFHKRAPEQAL

The structures appear in SMILES notation.

With `O=C(OC1CCN(CCCn2nnc3cc(CNC[C@H](O)c4ccc(O)c5[nH]c(=O)ccc45)c4c(c32)CCC4)CC1)C(O)(c1cccs1)c1cccs1`, the IC50 worked out at 1.11 nM.
In the case of `O=C(OC1CCN(CCCn2nnc3cc(CNC[C@H](O)c4ccc(O)c5[nH]c(=O)ccc45)c4c(c32)CCC4)CC1)C(O)(c1ccc(Cl)s1)c1ccc(Cl)s1` it was 5.57 nM.

The values above are taken from patent publication US20230322745A1, “FUSED TRICYCLIC DERIVATIVE AND PHARMACEUTICAL APPLICATION THEREOF” (CHIA TAI TIANQING PHARMACEUTICAL GROUP CO., LTD., priority 2020, published 2023).
